Columns and labels:
human mGlu2 receptor = human mGlu2 receptor (Homo sapiens, UniProt Q14416); assay: [35S]GTPγS binding assay, mGluR2 negative allosteric modulation (membranes from CHO cells transfected with human mGlu2 receptor, glutamate ~EC80 60 μM); conditions: for GTPγS - hmGluR2 anGT pIC50: membranes with human mGlu2 receptor, glutamate ~EC80 (60 μM), pIC50 = -log IC50 (M); for GTPγS - hmGluR2 anGT Emax: relative maximal effect: maximal % inhibition relative to the control glutamate response;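 on all read-outs here: membranes preincubated 30 min at 30 °C with compound plus glutamate, then [35S]GTPγS (0.1 nM) incorporation measured over another 30 min at 30 °C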
rats = assay: Reversal of the effect of the mGluR2 PAM JNJ-42153605-induced inhibition of scopolamine-induced hyperlocomotion; assay type: in vivo, rat; conditions: route PO, criterion total distance >1500 cm

Sequences of proteins named here, by UniProt entry; tags and fusion partners are left off. Residues count along the entry.
UniProt Q14416, 19-872 limits assumed: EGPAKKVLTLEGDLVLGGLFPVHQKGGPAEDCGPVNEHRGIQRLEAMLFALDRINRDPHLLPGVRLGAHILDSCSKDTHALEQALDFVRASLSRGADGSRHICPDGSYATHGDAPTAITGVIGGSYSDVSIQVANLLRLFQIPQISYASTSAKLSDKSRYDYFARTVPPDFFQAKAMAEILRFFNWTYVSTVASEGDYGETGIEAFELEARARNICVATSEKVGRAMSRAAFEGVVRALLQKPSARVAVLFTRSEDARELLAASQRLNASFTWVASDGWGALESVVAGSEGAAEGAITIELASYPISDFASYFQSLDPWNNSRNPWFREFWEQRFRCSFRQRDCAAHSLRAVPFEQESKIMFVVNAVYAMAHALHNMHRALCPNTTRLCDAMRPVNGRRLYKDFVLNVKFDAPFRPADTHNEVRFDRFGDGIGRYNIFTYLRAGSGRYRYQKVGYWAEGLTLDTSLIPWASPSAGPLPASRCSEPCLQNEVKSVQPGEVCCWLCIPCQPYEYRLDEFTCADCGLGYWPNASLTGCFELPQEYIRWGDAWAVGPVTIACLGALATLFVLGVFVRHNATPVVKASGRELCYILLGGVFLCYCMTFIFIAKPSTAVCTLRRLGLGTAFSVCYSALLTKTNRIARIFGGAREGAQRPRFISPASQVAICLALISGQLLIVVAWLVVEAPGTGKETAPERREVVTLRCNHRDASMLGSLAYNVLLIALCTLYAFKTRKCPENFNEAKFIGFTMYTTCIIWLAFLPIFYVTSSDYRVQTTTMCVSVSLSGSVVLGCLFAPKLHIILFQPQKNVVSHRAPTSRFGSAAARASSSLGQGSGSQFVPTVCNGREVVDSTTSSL

| Structure (SMILES) | GTPγS - hmGluR2 anGT pIC50 (human mGlu2 receptor) | GTPγS - hmGluR2 anGT Emax (human mGlu2 receptor) | ED50 SCOP JNJ-42153605 (Reversal of the effect of JNJ 42153605 on scopolamine-induced hyperlocomotion) (rats) |
| --- | --- | --- | --- |
| COCC1CN(c2ccc(C(F)(F)F)cc2)C(=O)c2c(C(=O)Nc3ccnc(C)c3)cnn21 (single isomer, unassigned) [94] | 7.7 | 115% |  |
| COc1cc(N2C[C@H](C)n3ncc(C(=O)Nc4ccnc(C)c4)c3C2=O)ccc1C(F)(F)F | 7.8 |  |  |
| Cc1cc(NC(=O)c2cnn3c2C(=O)N(c2ccc(C(F)F)c(Cl)c2)C[C@@H]3C)ccn1 | 8.53 |  | 1.99 mg/kg |
| Cc1cc(NC(=O)c2cnn3c2C(=O)N(c2ccc(Cl)c(Cl)c2)C[C@@H]3C)ccn1 | 8.66 |  | 1.26 mg/kg |

More lines, main results first:

| GTPγS - hmGluR2 anGT pIC50 (human mGlu2 receptor) | GTPγS - hmGluR2 anGT Emax (human mGlu2 receptor) | Structure (SMILES) | ED50 SCOP JNJ-42153605 (Reversal of the effect of JNJ 42153605 on scopolamine-induced hyperlocomotion) (rats) |
| --- | --- | --- | --- |
| 6.62 |  | Cc1cccnc1NC(=O)c1cnn2c1C(=O)N(c1ccc(C(F)(F)F)cc1)C[C@@H]2C |  |
| 7.32 | 117% | COCC1CN(c2ccc(C(F)(F)F)cc2)C(=O)c2c(C(=O)Nc3ccnc(C)c3)cnn21 (racemic) |  |
| 7.95 |  | Cc1ccnc(NC(=O)c2cnn3c2C(=O)N(c2ccc(C(F)(F)F)cc2)C[C@@H]3C)c1 | >0.63 mg/kg |
